Test results as given in patent US5908868A, “Retinol derivatives useful for enhancing immune response” (priority 1995, dated 1999).

What was measured:
thymocytes [1] = assay: Growth-stimulating effect of retinol on anti-CD3 activated thymocytes in the presence of interleukins; assay type: cell-based, BALB/c mouse
Procedure: Cells were cultured in serum-free medium, referred to as ITLB, containing RPMI 1640 supplemented with 8×10^-7 M insulin (5 μg/ml), 7×10^-8 M transferrin (5 μg/ml), 2×10^-6 M linoleic acid, 2×10^-6 M delipidated BSA (0.12 mg/ml), 2 mM L-glutamine, 1 mM sodium pyruvate and antibiotics. They were seeded into 96-well flat-bottom plates at varying cellular densities in a final volume of 100 μl. In control experiments, cells were cultured in medium containing 10% FCS or 3% human serum and 5×10^-5 M 2 ME. T cells and thymocytes were activated with immobilized, purified anti-mab CD3e or by the addition of Con A in the presence or absence of different concentrations of retinoids. Unless indicated otherwise, retinoids were replenished every 12 hours to maintain a reasonably constant concentration of these labile compounds in culture. The optimal concentration for stimulation of T cells was determined for each batch of anti-CD3 mAb and Con A. The optimal range of Con A was particularly narrow in serum-free medium (0.5-0.2 μg/ml) and varied with the cell density used. […] Cellular proliferation was determined by [^3 H] thymidine uptake (0.5 uCi/well; New England Nuclear, Boston, Mass.) after the incubation times indicated for each experiment with a 4 hour labeling pulse. Cells were harvested onto glass filter and [^3 H]TdR incorporation was determined by liquid scintillation counting. […]

thymocytes [2] = assay: as above; assay type: cell-based, BALB/c mouse; conditions: 3 days

Substance: IL-2: hrIL-2 purchased from Boehringer Mannheim
- CPM anti-CD3, no Retinol (thymocytes [1]; 3 days): 458 ± 156 CPM
- substitution for retinol by lymphokines/cytokines (thymocytes [1]; anti-CD3-activated thymocytes, no retinol): None and none
- CPM anti-CD3, 10^-6 M Retinol (thymocytes [2]): 77,343 ± 11,739 CPM
